Experimental findings from patent US20180318311A1, “TRICYCLIC 2-QUINOLINONES AS ANTIBACTERIALS” (priority 2017, published 2018) are described below.

Values after ≈ are worked out from the molar mass of the structure shown. Some results are limits rather than exact numbers.

Common to all, as to format: cell-based
Assay [1] deals with S. pneumoniae ATCC 25922 (NB07001). Put plainly: MIC by broth microdilution, S. pneumoniae NB07001. Particulars: Streptococcus pneumoniae, ATCC25922, 20 h, read-out: Antibacterial activity (MIC) NB07001.
The subject of assay [2] is P. aeruginosa NB52019, wild-type PAO1 strain. Put plainly: MIC by broth microdilution, P. aeruginosa NB52019. Conditions: Pseudomonas aeruginosa, PAO1, 20 h, read-out: Antibacterial activity (MIC) NB52019.
The test system of assay [3] is E. faecalis ATCC 29212 (NB04001). Kind of assay: MIC by broth microdilution, E. faecalis NB04001. Particulars: Enterococcus faecalis, ATCC29212, 20 h, read-out: Antibacterial activity (MIC) NB04001.
Assay [4] relates to S. aureus NB01080 fluoroquinolone-resistant clinical isolate. Put plainly: MIC by broth microdilution, S. aureus NB01080. Conditions: Staphylococcus aureus, 20 h, read-out: Antibacterial activity (MIC) NB01080.
Assay [5] deals with E. coli ATCC 25922 (NB27001). Put plainly: MIC by broth microdilution, E. coli NB27001. Particulars: Escherichia coli, ATCC25922, 20 h, read-out: Antibacterial activity (MIC) NB27001.

As to `C[C@H]1COc2c(N3CC[C@@H](C4(N)CC4)C3)ccc3cc(C(=O)O)c(=O)n1c23` [Example 12.3, (S)-10-((R)-3-(1-aminocyclopropyl)pyrrolidin-1-yl)-3-methyl-5-oxo-2,3-dihydro-5H-[1,4]oxazino[2,3,4-ij]quinoline-6-carboxylic acid], the MIC is less than 1 µg/mL in assay [1]; more than 32 µg/mL in assay [2]; less than 1 µg/mL in assay [3]; less than 1 µg/mL in assay [4]; less than 1 µg/mL in assay [5].
In the case of `C[C@H]1COc2c(N3CC[C@@H](C4(N)CC4)C3)cc(Cl)c3cc(C(=O)O)c(=O)n1c23` [Example 19.3, (S)-10-((R)-3-(1-aminocyclopropyl)pyrrolidin-1-yl)-8-chloro-3-methyl-5-oxo-2,3-dihydro-5H-[1,4]oxazino[2,3,4-ij]quinoline-6-carboxylic acid], the MIC was less than 1 µg/mL in assay [1], more than 32 µg/mL in assay [2], less than 1 µg/mL in assay [3] and 1 to 32 µg/mL (≈ 2.48 to 79.2 µM) in assay [5].
